The target of the assay is AChE (Rattus norvegicus, UniProt P37136). The conditions noted are these: tested form: 2 fumarate, 1.5H2O; for IC50: read-out: AchE IC50.

Protein sequences, listed by entry. Tags and fused reporters are not part of them. Residues count along the entry.
UniProt P37136, 32-614 limits assumed: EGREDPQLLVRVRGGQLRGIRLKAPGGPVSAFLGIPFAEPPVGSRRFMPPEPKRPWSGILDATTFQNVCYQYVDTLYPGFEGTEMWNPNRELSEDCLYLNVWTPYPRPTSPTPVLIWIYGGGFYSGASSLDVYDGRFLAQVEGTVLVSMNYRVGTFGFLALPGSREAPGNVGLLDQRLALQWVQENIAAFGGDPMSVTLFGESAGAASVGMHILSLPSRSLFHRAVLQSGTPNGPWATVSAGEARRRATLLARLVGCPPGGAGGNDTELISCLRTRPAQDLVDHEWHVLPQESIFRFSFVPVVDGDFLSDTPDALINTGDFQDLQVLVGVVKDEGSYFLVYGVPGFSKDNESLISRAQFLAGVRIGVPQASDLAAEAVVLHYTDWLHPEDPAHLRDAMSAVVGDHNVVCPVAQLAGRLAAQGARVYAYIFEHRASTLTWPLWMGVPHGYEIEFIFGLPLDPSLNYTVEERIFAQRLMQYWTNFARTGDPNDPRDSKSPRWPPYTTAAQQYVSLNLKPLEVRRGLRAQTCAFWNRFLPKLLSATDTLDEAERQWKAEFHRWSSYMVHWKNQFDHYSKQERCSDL

Structures are written as SMILES.

As for `CC1(C)Cc2[nH]c(=O)ccc2C(NCCCCCCCCNC2CC(C)(C)Cc3[nH]c(=O)ccc32)C1` (racemic), the IC50 – broadly, the concentration needed to halve the response being measured – was 22.3 µM and the Selectivity for AChE stood at 4.

On to `Cn1c2c(ccc1=O)C(NCCCCCCCCCCCCNC1CCCc3c1ccc(=O)n3C)CCC2` (racemic), for which the IC50 is 0.355 µM and the Selectivity for AChE was 210.

The values are drawn from patent US6472408B1, “Dimeric compounds” (priority 2000, dated 2002).
